# Compound activity from PubChem BioAssay.
# Rows were chosen to be rich in hits. Some 0.7% of all compounds tested hit in one or more screens of this group.
# GIV Gai3 FP = inhibitors of GIV GBA-motif binding to rat Galpha-i3; P08753; Galpha-i3/FITC-GIV peptide fluorescence polarization, 90 min; active compounds read low; scaled: aluminum fluoride 0%, vehicle 100%; percent of control (FP), % (test concentration not listed); 210,000 tested, 0.42% active; AID 1224905;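 active = replicate mean at 85% of control or lower, very high polarization wells dropped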;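 note: lower values mean more displacement of the GIV peptide from Galpha-i3; wells of about 15 µL received 100 nL stock; the first replicate is given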
# HCMV NEC inh = disrupts HCMV UL50-UL53 complex binding; HTRF UL50-UL53 interaction, normalized percent inhibition; inhibition, % (concentration not given with the values); hit rate 0.15% among 190,000; AID 1918969; in the data active = inhibition above about 27%, passing the limit was not always enough
# Sa growth 42C = inhibitors of Staphylococcus aureus growth at 42 °C; S. aureus RN4220 growth, OD600, 20 h; hits give low values; relative growth, % (concentration not given with the values); hit rate 0.53% among 170,000;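 active = relative growth at most 50% at the other temperature and 20+ points below 30 °C, or under 10% at both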
# * = called active by the depositor; nt = no result.
# Under each structure: GIV Gai3 FP	HCMV NEC inh	Sa growth 42C
FC(F)(F)c1ccc(NCCNc2ccc(C(F)(F)F)cn2)nc1
    nt	-16	106
Cc1ccc(S(=O)(=O)CCC(=O)O)cc1
    nt	2	78
Cc1ccc(S(=O)(=O)CCC(=O)c2ccc(O)cc2O)cc1
    102	-8	-0.2*
CC(CNC(=S)Nc1cccc(Cl)c1)CSc1ccc(Cl)cc1 (stereo not drawn)
    98	nt	-0.4*
S=C(NCCSc1ccc(Cl)cc1)Nc1cccc(Cl)c1
    96	nt	2
O=C(O)c1ccc2c(c1)C1C=CCC1C(c1cccc3ccccc13)N2 (stereo not drawn)
    109	35*	nt
COC(=O)c1ccc2c(c1)C1C=CCC1C(c1cccc3ccccc13)N2 (stereo not drawn)
    114	-24	nt
O=C(O)c1ccccc1C1=Nc2ccc(O)cc2Oc2cc(O)ccc21
    -91*	-27	81
O=C(O)c1ccccc1-c1ccccc1C(=O)O
    110	8	120
CCOc1cc(/C=C2/C(=O)N(c3ccccc3)N=C2C)ccc1OS(=O)(=O)c1ccccc1[N+](=O)[O-]
    106	0	nt
COc1cc(C=C2C(=O)N(C)C(=O)N(C)C2=O)ccc1OS(=O)(=O)c1ccccc1[N+](=O)[O-]
    95	43*	nt
Cc1ccccc1Cc1c(C)[nH]c2nc3ccccc3n2c1=O
    101	-8	84
N#CC(C#N)=Cc1ccc(OCC(O)Cn2c3ccccc3c3ccccc32)cc1 (stereo not drawn)
    94	-7	125
NC(=O)N/N=C/c1ccc(-c2ccc(Cl)cc2)o1
    97	-42	93
NC(=O)N/N=C/c1ccc([N+](=O)[O-])o1
    nt	-89	2.5*
CCc1ccc(N2C(=O)N(CC(=O)N(CC)CC)C3CS(=O)(=O)CC32)cc1 (stereo not drawn)
    102	-27	92
O=S(=O)(c1cccs1)c1cccs1
    99	-10	94
N#Cc1nccnc1S(=O)(=O)c1cccs1
    101	-46	-0.7*
CCCCC(O)(CCCC)C1=NN(c2ccc(F)cc2)C(=O)C(c2ccccc2)(c2ccccc2)O1
    112	nt	nt
O=c1c2ccc(N3CCCCC3)c3cccc(c32)c2nc3ccccc3n12
    104	nt	nt
N#Cc1ccc2c(c1)nc1c3ccc4c5c(ccc(c(=O)n21)c53)C(=O)NC4=O
    97	-54	0.9*
CCc1nnc(-c2cn(CC(=O)Nc3ccc(OC)cc3)c3ccccc23)o1
    100	-15	nt
CCOc1ccc(-c2c(C#N)c(N)nc(SCC#N)c2C#N)cc1
    nt	-11	nt
COc1cc(-c2c(C#N)c(SCC#N)nc(N)c2C(=O)OC(C)C)cc(OC)c1OC
    nt	63*	100
O=C(NCCCN1CCCCC1)C1CCN(c2ncc(-c3ccc(F)cc3)cn2)CC1
    102	nt	nt
O=C1C2C3C=CC(C3)C2C(=O)N1c1cccc(O)c1 (stereo not drawn)
    nt	4	nt
COc1ccc(OCC(O)Cn2c(=N)n(CCN3CCCCC3)c3ccccc32)cc1 (stereo not drawn)
    102	-12	118
N=c1n(CCN2CCCCC2)c2ccccc2n1CC(O)COc1ccc(Cl)cc1Cl (stereo not drawn)
    106	10	0.3*
Cc1nc2c(-c3ccccc3)c(C)[nH]n2c(=O)c1Cc1ccc(Br)cc1
    108	-3	0.1*
Cc1ccc(Cc2c(C)nc3c(-c4ccccc4)c(C)[nH]n3c2=O)cc1
    104	2	108

# Structures above containing an aryl thioether with sulfur outside any ring (four):
# Under each structure: GIV Gai3 FP	HCMV NEC inh	Sa growth 42C
CC(CNC(=S)Nc1cccc(Cl)c1)CSc1ccc(Cl)cc1 (stereo not drawn)
    98	nt	-0.4*
S=C(NCCSc1ccc(Cl)cc1)Nc1cccc(Cl)c1
    96	nt	2
CCOc1ccc(-c2c(C#N)c(N)nc(SCC#N)c2C#N)cc1
    nt	-11	nt
COc1cc(-c2c(C#N)c(SCC#N)nc(N)c2C(=O)OC(C)C)cc(OC)c1OC
    nt	63*	100

# 2 records drawn at random from the list so far:
# Under each structure: GIV Gai3 FP	HCMV NEC inh	Sa growth 42C
Cc1ccc(S(=O)(=O)CCC(=O)O)cc1
    nt	2	78
FC(F)(F)c1ccc(NCCNc2ccc(C(F)(F)F)cn2)nc1
    nt	-16	106

# (listing goes on)
# Under each structure: GIV Gai3 FP	HCMV NEC inh	Sa growth 42C
CCC(=O)NCCCc1nc2ccccc2n1C
    nt	-9	nt
CCCCN1C(=O)c2ccc(C(=O)N3CCc4ccccc43)cc2C1=O
    nt	-46	93
NC(=NCCCCCCN=C(N)/N=C(\N)Nc1ccc(Cl)cc1)/N=C(\N)Nc1ccc(Cl)cc1
    nt	-13	-0.8*
NC(=NCCCCCCN=C(N)N=C(N)Nc1ccc(Cl)cc1)N=C(N)Nc1ccc(Cl)cc1
    nt	4	nt
CCOc1ccc(NC(=O)CSc2nc3ccccc3c(=O)n2CC2CCC(C(=O)NCc3ccco3)CC2)cc1 (stereo not drawn)
    110	nt	nt
CC(=O)Nc1ccc(CNC(=O)c2ccc(F)cc2)cc1
    nt	-6	69
COc1ccc(N(C=O)/C=C2\Sc3ccccc3C2=O)cc1
    -15*	-34	101
COc1ccc(N(/C=C2\Sc3ccccc3C2=O)C(=O)c2ccco2)cc1
    184	-32	nt
O=C(O)COCC(=O)Nc1ccc2c(c1)oc1ccccc12
    104	nt	100
O=C(O)CCC(=O)Nc1ccc2c(c1)oc1ccccc12
    105	52*	199
COc1ccc(/C=C2\OC(=S)N(C)C2=O)cc1
    103	nt	107
COc1cc(/C=C2/OC(=S)N(C)C2=O)ccc1O
    -73*	-64	93
CCOC(=O)c1cc(C)nc2c1c(=O)n(Cc1nc(-c3ccccc3C)oc1C)c(=O)n2C
    111	nt	nt
COc1cc(NC(=O)c2nnn(-c3cccc(Cl)c3C)c2N)cc(OC)c1
    101	-25	nt
CCC(C)NC(=O)c1ccc2c(c1)N(Cc1ccccc1)CCS2 (stereo not drawn)
    105	-9	nt
Cn1nc(C(C)(C)C)cc1NC(=O)Nc1ccc(Cl)cc1
    nt	-10	nt
Cn1nccc1NC(=O)Nc1ccc(Cl)cc1
    102	66*	99
C/C(=N\NC(N)=O)C1CCCCC1
    nt	-25	98
C/C(=N\NC(N)N)C1CCCCCCCCCCC1
    102	-22	-0.4*
Cc1ccc(-n2nc(C)c3c2N2COCN(C3)c3c(c(C)nn3-c3ccc(C)cc3)C2)cc1
    nt	-1	96
O=C(Cn1ncn2c(cc3ccccc32)c1=O)N1CCN(C(=O)c2ccco2)CC1
    98	-16	100
COC(=O)C1=C(C)N(Cc2ccccc2)C(=O)/C1=C\c1cccc(Cl)c1
    51*	nt	103
COC(=O)C1=C(C)N(Cc2ccccc2)C(=O)/C1=C\c1cccc(O)c1
    108	-5	87
Cc1nc2c(C(=O)NCc3ccccc3)c[nH]n2c(=O)c1Cl
    104	nt	94
Cc1nc2c(C(=O)NCc3ccccc3)c[nH]n2c(=O)c1Cc1ccccc1Cl
    103	nt	0.7*
CC(=O)Nc1ccc(F)cc1NC=C(C#N)C#N
    108	-2	85
N#CC(C#N)=NNc1ccc(F)cc1C(F)(F)F
    104	-20	-0.7*
Oc1c(Cl)cc(Cl)cc1Sc1cc(Cl)cc(Cl)c1O
    nt	42	-0.6*
CCC(=O)c1cc(Cl)cc(Cl)c1O
    nt	-7	124
Cc1ccc(N)c(C(O)(C(F)(F)F)C(F)(F)F)c1
    nt	-14	nt
Oc1c(Cl)cc(Cl)cc1C(O)(C(F)(F)F)C(F)(F)F
    nt	12	7.3*
O=C1NC(=O)N(C2CCCCC2)C(=O)/C1=C\c1ccc(-c2ccc(C(=O)O)cc2)o1
    112	-24	84
CN(C)c1ccc(/C=C2\C(=O)NC(=O)N(C3CCCC3)C2=O)o1
    -42*	nt	68
O=C(c1cncc(Br)c1)N(c1nccs1)C1CCCCC1
    nt	6	104
O=C(O)c1ccc2c(c1)NC(=O)C1CCCN21 (stereo not drawn)
    nt	79*	nt
COC(=O)c1ccc2c(c1)NC(=O)C1CCCN21 (stereo not drawn)
    nt	-5	nt
COc1ccc(NC(=O)CCc2nc3sc4c(c3c(=O)[nH]2)CCCC4)cc1OC
    101	9	nt
O=C(O)c1ccc(-c2ccc(F)cc2)s1
    nt	-52	103
O=C1C(c2c(O)[nH]c3ccccc23)=Nc2ccccc21
    nt	-15	91
O=C1c2ccccc2-[n+]2ccc3c([nH]c4ccccc43)c21
    nt	61*	nt
